Measured values published in patent US6486167B1, “Heterocyclic cytotoxic agents” (Rutgers, The State University of New Jersey, priority 1997, dated 2002).

Assays:
[1] = system: human lymphoblast RPMI 8402; experiment: MTT-microtiter plate tetrazolinium cytotoxicity assay (Test B), RPMI 8402; format: cell-based
Method: (§1) The cytotoxicity was determined using the MTT-microtiter plate tetrazolinium cytotoxicity assay (MTA) (See Chen A. Y. et al. Cancer Res. 1993, 53, 1332; Mosmann, T. J., J. Immunol. Methods 1983, 65, 55; and Carmichael, J. et al. Cancer Res. 1987, 47, 936). The human lymphoblast RPMI 8402 and its camptothecin-resistant variant cell line, CPT-K5 were provided by Dr. Toshiwo Andoh (Aichi Cancer Center Research Institute, Nagoya, Japan) (see Andoh, T.; Okada, K. “Drug resistance mechanisms of topoisomerase I drugs,” Adv. in Pharmacology 1994, 29B, 93. The cytotoxicity assay was performed using 96-well microtiter plates. Cells were grown in suspension at 37° C. in 5% CO2 and maintained by regular passage in RPMI medium supplemented with 10% heat-inactivated fetal bovine serum, L-glutamine (2 mM), penicillin (100 U/mL), and streptomycin (0.1 mg/mL). For determination of IC50, cells were exposed continuously with varying concentrations of drug and MTT assays were performed at the end of the fourth day.

[2] = system: camptothecin-resistant variant cell line, CPT-K5; experiment: MTT-microtiter plate tetrazolinium cytotoxicity assay (Test B), CPT-K5; format: cell-based, human
Method: as §1

Question: “2,3,8,9-Dimethylenedioxybenzo[i]phenanthridine [Compound 29]” was tested. Which IC50 [1] did it give?
Answer: 15 µM

Question: What about the IC50 [2] of the same substance?
Answer: 20 µM
